Our source for the IC50 values is patent publication US8158621B2, “Methods of treating or preventing autoimmune diseases with 2,4-pyrimidinediamine compounds” (Rigel Pharmaceuticals, Inc., priority 2002, dated 2012).

Experiment [1] concerns bone marrow derived mast cells (BMMC). Kind of experiment: BMMC high cell density IgE activation: LTC4. The experiment is classed as cell-based, mouse. As to conditions: read-out: BMMC anti-IgE LTC4. How it is done: (§1) After sensitizing, cells are counted, pelleted (1000 rpm, 5-10 minutes), and resuspended at 1-3×10^6 cells/ml in MT buffer. Add 100 ul of cell suspension to each well and 100 ul of compound dilutions. The final vehicle concentration is 0.5% DMSO. Incubate at 37° C. (5% CO2) for 1 hour. After 1 hour of compound treatment, stimulate cells with 6× stimulus (60 ng/ml DNP-BSA). Mix wells with the cells and allow plates to incubate at 37° C. (5% CO2) for one hour. After 1 hour incubation, pellet cells (10 minutes, 1000 RPM) and collect 200 ul per well of the supernatant, being careful not to disturb pellet, and transfer to a clean tube or 96-well plate. Place the supernatant plate on ice. During the 4-5 hour step (see next) perform the hexosiminidase assay. Resuspend cell pellet in 240 ul WEI-conditioned media containing 0.5% DMSO and corresponding concentration of compound. Incubate BMMC cells for 4-5 hours at 37° C. (5% CO2). After incubation, pellet cells (1000 RPM, 10 minutes) and collect 225 ul per well and place in −80° C. until ready to perform ELISAS. ELISAS are performed on appropriately diluted samples (determined empirically for each donor cell population so that the sample measurement falls within the standard curve) following the supplier's instructions.

Experiment [2] shares this test system. The experiment is described as follows: BMMC high cell density IgE activation: hexosaminidase. The class given is cell-based, mouse. As to conditions: read-out: BMMC anti-IgE hexos. How it is done:
as §1, with “Incubate BMMC cells for 4-5 hours at 37° C. (5% CO2).” left out
Add 50 uL of BMMC cell supernatant (see above) to the hexoseaminidase substrate, place at 37° C. for 30 minutes and read the plate at 5, 10, 15, and 30 minutes on a spectrophotometer.

In the case of `COc1cc(Nc2ncc(F)c(Nc3ccc4c(c3)OCCO4)n2)cc(OC)c1` [Compound R926791], the figures for the IC50 in experiment [1] and in experiment [2] were 896 nM and 64 nM, respectively.
